# scFv variants of Ab-14 (light chain) against a SARS-CoV-2 spike peptide

Values reported by Li et al. 2023, doi:10.1038/s41467-023-39022-2 (FLAb copy).

All variants were tested on one target, the spike HR2 peptide PDVDLGDISGINAS (SARS-CoV-2).

Parent scFv Ab-14: VH joined to VL by the linker GGGGSGGGGSGGGGS. Changes lie in the light chain CDRs alone.
VH: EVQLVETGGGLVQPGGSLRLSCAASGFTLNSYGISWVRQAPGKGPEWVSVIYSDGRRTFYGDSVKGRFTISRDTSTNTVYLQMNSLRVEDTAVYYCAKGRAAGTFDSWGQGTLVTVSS
VL: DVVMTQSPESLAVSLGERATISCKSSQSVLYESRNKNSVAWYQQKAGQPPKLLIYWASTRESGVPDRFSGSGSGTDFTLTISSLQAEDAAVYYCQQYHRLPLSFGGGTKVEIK

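The parent was found by panning a naive human phage display library on the peptide. Designed CDR sequences, proposed from the first random library and measured here. Several design methods are mixed in this list. Affinity was read by AlphaSeq, a pooled yeast mating assay with surface-displayed partners. Binding brings cells together so that they mate, and sequencing counts the barcode pairs among the diploids. Read counts were normalised to the haploid input and turned into Kd by a linear fit to BCL2-family pairs of known affinity, for each replicate. The assay was run in six technical replicates.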

The parent's light chain CDRs are KSSQSVLYESRNKNSVA, WASTRES, QQYHRLPLS; each variant's own CDRs replace them letter for letter. This list holds designs with at most six substitutions. Values are apparent Kd, the geometric mean of the replicates that gave a signal; lower means stronger binding. An entry "nd" has no value in the source: the pair was not observed among the diploids in any replicate. This suggests poor binding but is not conclusive. Order: sorted from the lowest average up, undetected variants last. In the paper, a design with two or fewer of six values counts as a poor binder. Background: pairings of all light chain designs with three empty control strains gave a value in 4% of cases (median 430 nM, 5th percentile 38 nM). Values in that range, when seen in few replicates, are hard to tell from nonspecific mating. The range of this assay differs from that of the first round, and the authors advise against merging the two. Of ten entries with the parent sequence, four were seen in most replicates (averages 2.2 nM to 240 nM), three in one and three in none, so single entries are noisy.

The variant KLSQSWLYEERNKNNVA | SASTREW | QQYHRLPLS showed 360 pM (6 of 6 replicates). For KLSQMVDYESRNMNNVA | NASTRES | QQYHRLPLS, the assay gave 400 pM (6 of 6 replicates). The variant KSSQEVDFESRNKNSVA | DASTRES | QQYHRLPLS showed 420 pM (6 of 6 replicates). With KLSQSVPYESRNKNSVA | NANTRES | QQYHRLPLS the result was 510 pM (6 of 6 replicates). The variant KSSYSELYESRNKNSVA | DASTRES | QQYHRLPLS showed 520 pM (6 of 6 replicates). The variant KLSESDLYESRNKNSVA | HASTRES | QQYHRLPLS showed 550 pM (6 of 6 replicates). For KLSQSVGYESRNKNSVA | HASTRES | QQYHRLPLS, the assay gave 640 pM (6 of 6 replicates).

For KLSQSVLYESRNKNSVA | NASQREQ | QQYHRLPLS, the assay gave 700 pM (6 of 6 replicates). With KLSQSDLYESRMKNSVA | EASTRES | QQYHRLPLS the result was 730 pM (6 of 6 replicates). With KLQQSVEYESRNKNSVA | NASQRES | QQYHRLPLS the result was 740 pM (6 of 6 replicates). The variant QLSQSHLYESRNKNSVA | EASTREQ | QQYHRLPLS gave 750 pM (6 of 6 replicates). For KSAFSDLNESRNFNSVA | DASTRES | QQYHRLPLS, the assay gave 830 pM (6 of 6 replicates). For KLHQSVLYESRNKNSVA | NASQRES | QQYHRLPLS, the assay gave 830 pM (6 of 6 replicates). The variant KLSQSKLYESRNKNSVA | EASTRES | QQYHRLPLS gave 830 pM (6 of 6 replicates).

The variant KLSQSWLYESRNKMSVA | NASTRES | QQYHRLPLS gave 860 pM (6 of 6 replicates). The variant KLSQSVLYQSRNKNSVA | HASTRES | QQYHRLPLS gave 940 pM (6 of 6 replicates). The variant KLPQSVLYESRNKNSVA | NASTRES | QDYHRLPLS showed 1.0 nM (6 of 6 replicates). With KLQQSWLYESRNKNSVA | NASTRED | QQYHRLPLS the result was 1.1 nM (6 of 6 replicates). For KVSQSCLYESGTKNSVA | NASSRES | QQYHRLPLS, the assay gave 1.1 nM (6 of 6 replicates). The variant KVQPSYLYESRNKNSVA | QASTRES | QQYHRLPLS showed 1.1 nM (6 of 6 replicates). With KLSQSQLYESRAKNSVA | NASQRES | QQYHRLPLS the result was 1.2 nM (6 of 6 replicates).

The variant KASPSWLYEDRVKNSVA | GASTRES | QQYHRLPLS showed 1.3 nM (6 of 6 replicates). The variant KMSQSVLYESRNQNSVA | SASTRES | QQYHHLPLS showed 1.3 nM (6 of 6 replicates). For KFSQSVLYESRTKNSVA | NASTRES | QTYHRLPLS, the assay gave 2.0 nM (6 of 6 replicates). For KQSQRVLYESRNKNSVA | DASTRES | QQYHRVPLS, the assay gave 2.1 nM (6 of 6 replicates). With KLSQAVLYESRNKNSVA | WASTRES | QQYHRLPLS the result was 2.1 nM (6 of 6 replicates). The variant KSSISVLYESENKNSVA | DASQRES | QQYHRLPLS showed 2.2 nM (6 of 6 replicates). The variant KSLQSVLYESRDKNSVA | HASTRCD | QQYHRLPLS showed 2.3 nM (6 of 6 replicates).

The variant KLSQSELYESRMKNSVA | NASTREE | QQYHRLPLS showed 4.3 nM (6 of 6 replicates). The variant KLSQSVAYESRTKNSVA | NASTRES | QQYHRMILS showed 5.7 nM (6 of 6 replicates). With KSSQSVLYESRWKNSVA | NASTRES | QQYHRLPLS the result was 6.1 nM (6 of 6 replicates). The variant KVSQSVLYGDRNKSSVA | QASTREM | QQYHRLPLS showed 6.2 nM (6 of 6 replicates). With KSSQSVEYESRNKNSVA | GASTRTS | AQYSRLPLS the result was 8.5 nM (6 of 6 replicates). The variant KSSSSVLPESEVKNSVA | WASTRES | QQYHRLPLS showed 9.6 nM (6 of 6 replicates). The variant KSSQSVVYESRNKNSVA | ASSTRES | QQYHMLPLA gave 10 nM (6 of 6 replicates).

With KLQWLVLYSSRNKNSVA | NASTRES | QQYHRLPLS the result was 11 nM (6 of 6 replicates). With KSLQSVLYESRNKNSVA | HASTRED | QQYHRLPMS the result was 11 nM (6 of 6 replicates). The variant KLSQSVLYESRNKNSVA | WASTRIS | QQYHRLPLS gave 11 nM (6 of 6 replicates). With KISQSVPAESRNKNSVA | WASTRES | QQYHRLLLS the result was 18 nM (4 of 6 replicates). The variant KSIQSVLYEDRNKNSVA | GASTREV | SQYHRLPLS showed 36 nM (5 of 6 replicates). For KSSQSVLYEQHNKNSVA | WASHRES | QQYHRLPLS, the assay gave 41 nM (6 of 6 replicates). With KSSQSQLYESRNKNSVA | FASTRES | QLYHILPLS the result was 46 nM (4 of 6 replicates).

For KSSQGLLYESRNKNSVA | WASTRES | QQYHRLPLS, the assay gave 58 nM (6 of 6 replicates). The variant KSSQSVLYESRNKNSVA | QASTRES | QYYHRLPLS showed 170 nM (2 of 6 replicates). The variant KSSQSVLYESRNKNSVA | WASTRES | QQYSRLPLS showed 190 nM (6 of 6 replicates). The variant KSQQSVLYESRNKNSVA | WASTRES | QQYHREPLS gave nd (0 of 6 replicates). For KSSQSVLYMDRNKNSVA | WASTRES | QQMHRLPLS, the assay gave nd (0 of 6 replicates). For KSDQSVLYESRNGNSVA | SASTRES | QQYHRHPLS, the assay gave nd (0 of 6 replicates). For KSSQSVLYESRNKNSVA | WASTRES | QQYHRLPDS, the assay gave nd (0 of 6 replicates).

Top 3 of the variants detected in all replicates, tightest first:

CDR-L1	CDR-L2	CDR-L3	Kd	detected
KLSQSWLYEERNKNNVA	SASTREW	QQYHRLPLS	360 pM	6 of 6
KLSQMVDYESRNMNNVA	NASTRES	QQYHRLPLS	400 pM	6 of 6
KSSQEVDFESRNKNSVA	DASTRES	QQYHRLPLS	420 pM	6 of 6